{"source": "patent US20140193824A1", "about": "“High-Resolution Clonal Typing of Escherichia coli” (priority 2013, published 2014)", "system": "clinical E. coli isolates", "note": "Like-named read-outs stand apart in the source and are kept apart here.", "data": [{"substance": "trimethoprim-sulfamethoxazole [T/S]", "values": [{"measurement": "Resistance among rejected isolates", "setting": "Children's Hospital, Seattle", "value": 58.7, "unit": "%"}, {"measurement": "Resistance among rejected isolates", "setting": "Harborview Med. Center, Seattle", "value": 58.3, "unit": "%"}, {"measurement": "Resistance among rejected isolates", "setting": "Univ. of Münster, Münster", "value": 46.6, "unit": "%"}, {"measurement": "Resistance among rejected isolates", "setting": "VA Med. Center, Minneapolis", "value": 51.9, "unit": "%"}]}]}
